The entries are a selection whose mix differs from that of the whole data set. Records with an inconclusive call do not appear. Activity calls are given as the source filed them. Calls come from the whole dose curve; as a rule, active = well fitted inhibition curve with a large enough effect; inconclusive = small, poorly fitted or top-dose-only effect, or another doubt; inactive = no such curve, though single readings can be large or run the other way.
% is set by controls: 0 for no effect and ±100 for the full control effect.

Protein sequences, listed by entry. Tags and fused reporters are not part of them.
UniProt Q92830, whole entry: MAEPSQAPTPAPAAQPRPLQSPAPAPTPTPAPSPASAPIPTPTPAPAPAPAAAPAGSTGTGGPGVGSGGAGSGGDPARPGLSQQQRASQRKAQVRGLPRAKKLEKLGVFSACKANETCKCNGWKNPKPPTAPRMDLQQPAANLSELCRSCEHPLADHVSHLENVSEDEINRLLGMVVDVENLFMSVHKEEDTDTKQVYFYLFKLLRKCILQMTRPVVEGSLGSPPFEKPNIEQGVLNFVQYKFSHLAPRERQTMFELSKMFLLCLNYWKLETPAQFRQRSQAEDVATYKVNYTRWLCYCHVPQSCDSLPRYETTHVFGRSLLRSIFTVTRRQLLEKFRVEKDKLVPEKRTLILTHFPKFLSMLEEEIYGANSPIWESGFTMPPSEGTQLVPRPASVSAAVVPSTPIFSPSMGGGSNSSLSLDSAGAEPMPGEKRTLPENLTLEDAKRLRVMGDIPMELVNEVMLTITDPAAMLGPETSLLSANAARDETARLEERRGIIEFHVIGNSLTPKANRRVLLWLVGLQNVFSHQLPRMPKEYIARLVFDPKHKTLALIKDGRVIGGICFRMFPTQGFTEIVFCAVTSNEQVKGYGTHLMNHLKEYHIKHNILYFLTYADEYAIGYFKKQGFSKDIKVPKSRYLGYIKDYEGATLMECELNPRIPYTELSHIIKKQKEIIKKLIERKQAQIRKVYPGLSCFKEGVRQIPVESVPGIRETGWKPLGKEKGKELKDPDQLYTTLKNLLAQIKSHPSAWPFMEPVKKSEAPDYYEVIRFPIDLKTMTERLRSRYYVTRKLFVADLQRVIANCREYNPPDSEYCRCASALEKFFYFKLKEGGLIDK

This assay concerns the target Histone acetyltransferase KAT2A (Homo sapiens) (UniProt Q92830). Nature of the assay: qHTS Assay for Inhibitors of GCN5L2. As to conditions: GCN5L2 HAT assay, ThioGlo1 CoA-SH fluorescence; at 58.9 µM (top of the series) unless noted. On the technique in general: qHTS replaces the single test concentration by a dilution series.
Regarding `COc1ccccc1OP(C)(=O)Nc1ccc(C)c(C)c1` (stereo not given), the activity change, negative = inhibition is inactive: 1.57%.

With `CP(=O)(OCCOc1ccccc1)OCCOc1ccccc1`, the activity change, negative = inhibition is inactive: -7.2%.

As to `CP(=O)(Nc1ccc(Cl)cc1Cl)Oc1ccccc1` (stereo not given), the activity change, negative = inhibition was inactive: -4.38%.

With `Cc1nc2ccc3ccccc3c2o1.O=[N+]([O-])c1cc([N+](=O)[O-])c(O)c([N+](=O)[O-])c1`, the activity change, negative = inhibition was inactive: -22.7%.

Take `COc1ccc(OP(C)(=O)Nc2ccccn2)cc1` (stereo not given): the activity change, negative = inhibition was inactive: -3.33%.

With `COc1ccccc1OP(C)(=O)Nc1ccc(Br)cc1` (stereo not given), the activity change, negative = inhibition is inactive: -0.239%.

Consider `CCc1ccc(OP(C)(=O)O)cc1`, for which the activity change, negative = inhibition was inactive: -9.65%.

For the compound `COc1ccccc1OP(C)(=O)Nc1ccc(C)cc1C` (stereo not given), the activity change, negative = inhibition is inactive: 41.1%.

Turning to `O=[N+]([O-])c1cc([N+](=O)[O-])c(Nc2ccccn2)c([N+](=O)[O-])c1`, the activity change, negative = inhibition was inactive: -1.11%.

For the compound `Cc1c(NP(C)(=O)Oc2ccc(C(C)C)cc2)c(=O)n(-c2ccccc2)n1C` (stereo not given), the activity change, negative = inhibition was inactive: 2.58%.

`CCc1ccc(OP(C)(=O)Nc2cccnc2)cc1` (stereo not given): the activity change, negative = inhibition is inactive: -3.31%.

As to `CP(=O)(Oc1ccccc1)N1CCOC1=O` (stereo not given), the activity change, negative = inhibition is inactive: 2.66%.

For `OCCSCCO`, the activity change, negative = inhibition was inactive: 20%.

For the compound `O=C(OCCCN1CCCC1)C(O)(c1ccccc1)C1CCCCC1` (stereo not given), the activity change, negative = inhibition is inactive: -2.8%.

In the case of `COc1ccccc1OP(C)(=O)Nc1c(C)n(C)n(-c2ccccc2)c1=O` (stereo not given), the activity change, negative = inhibition was inactive: 2.47%.

On to `COc1ccc(OP(C)(=O)Nc2ccc(Br)cc2)cc1` (stereo not given), for which the activity change, negative = inhibition was inactive: 3.78%.

Turning to `CCN(CC)CC(O)COC(=O)C(O)(c1ccccc1)C1CCCCC1` (stereo not given), the activity change, negative = inhibition is inactive: 1.8%.

Turning to `CN(C)C(=O)c1c([N+](=O)[O-])cc([N+](=O)[O-])cc1[N+](=O)[O-]`, the activity change, negative = inhibition is inactive: -1.81%.

In the case of `CP(=O)(Nc1ccc(Cl)cc1)Oc1ccc(F)cc1` (stereo not given), the activity change, negative = inhibition is inactive: -10.8%.

In the case of `CC(C)(C)c1ccc(OP(C)(=O)O)cc1`, the activity change, negative = inhibition is inactive: -6.06%.

Turning to `COc1ccccc1OP(C)(=O)Nc1ccccc1Br` (stereo not given), the activity change, negative = inhibition is inactive: 1.16%.

With `CP(=O)(OC12CC3CC(CC(C3)C1)C2)OC12CC3CC(CC(C3)C1)C2`, the activity change, negative = inhibition was inactive: -9.26%.

Take `CCOC(=O)c1ccc(NP(C)(=O)Oc2ccc(Cl)cc2)cc1` (stereo not given): the activity change, negative = inhibition is inactive: 0.269%.

For `CC(C)OP(=O)(F)OC(C)C`, the activity change, negative = inhibition was inactive: 1.49%.

Consider `C/C1=C2N=C(/C=C3N=C(/C(C)=C4\[N-][C@@](C)([C@H]5N=C1[C@@](C)(CCC(=O)NC[C@H](C)OP(=O)([O-])O[C@@H]1[C@H](O)[C@H](n6cnc7cc(C)c(C)cc76)O[C@@H]1CO)[C@@H]5CC(N)=O)[C@](C)(CC(N)=O)[C@H]4CCC(N)=O)[C@@](C)(CC(N)=O)[C@@H]\3CCC(N)=O)C(C)(C)[C@@H]/2CCC(N)=O.[C-]#N.[Co+3]`, for which the activity change, negative = inhibition was inactive: 3.08% [at 21.4 µM].

The values are drawn from PubChem BioAssay AID504327 (National Center for Advancing Translational Sciences (NCATS), 2011).
